The values that follow come from PubChem BioAssay AID2247 (Johns Hopkins Ion Channel Center, 2010).

The chains behind the UniProt entries cited, without tags or fusion partners.
UniProt Q9QUQ5, whole entry: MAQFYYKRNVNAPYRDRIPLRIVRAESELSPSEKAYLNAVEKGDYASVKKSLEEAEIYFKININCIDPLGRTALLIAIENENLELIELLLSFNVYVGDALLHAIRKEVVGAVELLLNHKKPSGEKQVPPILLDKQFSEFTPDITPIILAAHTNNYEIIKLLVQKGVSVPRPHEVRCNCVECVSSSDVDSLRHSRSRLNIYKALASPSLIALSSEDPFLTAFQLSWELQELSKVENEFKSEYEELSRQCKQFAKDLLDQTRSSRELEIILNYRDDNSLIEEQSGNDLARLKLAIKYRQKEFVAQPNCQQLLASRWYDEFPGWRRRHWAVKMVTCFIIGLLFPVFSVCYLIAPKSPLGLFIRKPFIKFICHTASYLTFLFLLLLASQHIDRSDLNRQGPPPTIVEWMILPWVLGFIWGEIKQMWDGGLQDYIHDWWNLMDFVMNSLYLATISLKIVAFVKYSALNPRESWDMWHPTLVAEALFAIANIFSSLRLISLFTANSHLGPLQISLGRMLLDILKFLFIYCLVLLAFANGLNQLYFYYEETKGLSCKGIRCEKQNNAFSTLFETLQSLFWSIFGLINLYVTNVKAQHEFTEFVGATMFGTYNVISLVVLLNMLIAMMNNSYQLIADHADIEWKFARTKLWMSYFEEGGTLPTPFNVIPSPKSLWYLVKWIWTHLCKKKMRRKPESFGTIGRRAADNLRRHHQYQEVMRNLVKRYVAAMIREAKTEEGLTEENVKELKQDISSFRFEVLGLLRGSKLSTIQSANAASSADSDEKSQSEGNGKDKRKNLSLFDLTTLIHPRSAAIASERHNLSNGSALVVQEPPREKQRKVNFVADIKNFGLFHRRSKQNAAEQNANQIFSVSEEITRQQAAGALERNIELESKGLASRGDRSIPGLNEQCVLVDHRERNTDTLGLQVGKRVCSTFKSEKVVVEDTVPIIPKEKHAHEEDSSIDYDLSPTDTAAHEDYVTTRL

The list shows a part of the results, in another mix than the full data. Some salts and complexes are drawn in separate pieces, as the source files them; their charges need not balance. Active and inactive are the calls of the source.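 How the source made its calls: active means B-score over 3 SD under the library average, no early fluorescence shift, positive overall ratio signal; inactive means the rest.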

The assay concerns the target Short transient receptor potential channel 4 (Mus musculus) (UniProt Q9QUQ5). The assay can be described thus: blockers of DAMGO-evoked TRPC4 calcium flux – Fluo4 calcium, HEK293 TRPC4beta/mu-opioid cells, primary screen (AID 2247). To be noted: at 10 µM.
As to `CN(C)C(=O)Oc1noc2ccccc12`, the outcome was inactive.

Take `Cc1ccccc1OP(=O)(Nc1ccccn1)Oc1ccccc1C`: the outcome was inactive.

With `O=C(NC1CCS(=O)(=O)C1)NP(=S)(Oc1ccccc1)Oc1ccccc1` (stereo not drawn), the outcome was inactive.

In the case of `CCNC(=S)/N=C(\N)N[N+](=O)[O-]`, the outcome was inactive.

Turning to `Cc1ccc(NP(=O)(Oc2cccc(C)c2)Oc2cccc(C)c2)nc1`, the result was inactive.

Consider `CCOC(=O)NC(Sc1ccccc1)C(Cl)(Cl)Cl` (stereo not drawn), for which the outcome was inactive.

As to `c1ccc(-c2nn[nH]n2)c(-c2nn[nH]n2)c1`, the result was inactive.

With `CCOC(=O)c1ccc(NP(C)(=O)Oc2ccc(F)cc2)cc1` (stereo not drawn), the outcome was inactive.

For the compound `COc1ccc(OP(C)(=O)Nc2ccc(SC(F)(F)F)cc2)cc1` (stereo not drawn), the outcome was inactive.

Take `O=C(OC1CN2CCC1CC2)c1ccc([N+](=O)[O-])cc1` (stereo not drawn): the result was inactive.

As for `CC(=O)c1ccc(N2CC2c2ccncc2)cc1` (stereo not drawn), the result was inactive.

With `C[C@H]1OP(=O)(Oc2ccccc2)C[C@@H]2O[C@@H]21` (stereo partly drawn), the outcome was inactive.

As for `C[C@@H]1C=CCP(=O)(Oc2ccccc2)O1` (stereo partly drawn), the result was inactive.

For the compound `O=C(OCCN1CCN(CCOCc2ccccc2)CC1)C(O)(c1ccccc1)c1ccccc1`, the outcome was inactive.

With `CC(=O)Nc1ccc(Oc2c([N+](=O)[O-])cc([N+](=O)[O-])cc2[N+](=O)[O-])cc1`, the outcome was inactive.

On to `CC(=O)Nc1ccc([As](=O)(O)O)c(O)c1`, for which the outcome was inactive.

For `COc1ccc2c(c1O)-c1c(O)c(OC)cc3c1[C@H](C2)[N+](C)(C)CC3.O=[N+]([O-])c1cc([N+](=O)[O-])c([O-])c([N+](=O)[O-])c1[O-]`, the result was inactive.

As to `CCOc1ccc(C2=NCC(CBr)S2)cc1` (stereo not drawn), the outcome was inactive.

In the case of `O=P1(Nc2nc3ccc(Cl)cc3s2)COc2ccccc2O1` (stereo not drawn), the result was inactive.

Turning to `CP(=O)(Nc1ccccc1F)Oc1ccccc1` (stereo not drawn), the outcome was inactive.

With `CC(C)c1ccc(OP(C)(=O)Nc2ccc(SC(F)(F)F)cc2)cc1` (stereo not drawn), the result was inactive.

As for `CC(C)(C)C(=O)NC(Sc1ccccc1)C(Cl)(Cl)Cl` (stereo not drawn), the result was inactive.

For `CP(=O)(Nc1ccc2c(c1)OCCO2)Oc1ccccc1` (stereo not drawn), the outcome was inactive.

As for `CP(=O)(Nc1ccc(SC(F)(F)F)cc1)Oc1ccc(F)cc1` (stereo not drawn), the outcome was inactive.

For `O=P(Nc1nccs1)(c1ccccc1)c1ccccc1`, the result was inactive.

Take `CC(C)C(=O)NC(Sc1ccccc1)C(Cl)(Cl)Cl` (stereo not drawn): the outcome was inactive.

As to `CCOP(C)(=S)SCC(=O)NC(C)(CC)C(=O)O` (stereo not drawn), the result was inactive.

In the case of `c1nnnn1CCn1cnnn1`, the outcome was inactive.

As to `CC(=O)NC(SC(=S)N(C)C)C(Cl)(Cl)Cl` (stereo not drawn), the result was inactive.

Regarding `O=[N+]([O-])c1ccc(OP2(=O)COCCO2)cc1` (stereo not drawn), the result was inactive.

Regarding `O=[N+]([O-])c1ncn(CCn2cnc([N+](=O)[O-])n2)n1`, the outcome was inactive.

Take `O=[N+]([O-])c1ccc(O)c(/C=N/Nc2ccc([N+](=O)[O-])cc2[N+](=O)[O-])c1`: the result was inactive.

For `Cc1cc(-c2cccc3ccccc23)c(C)cn1.O=[N+]([O-])c1cc([N+](=O)[O-])c(O)c([N+](=O)[O-])c1`, the result was inactive.

On to `O=[N+]([O-])c1cc([N+](=O)[O-])c(NCC2CCS(=O)(=O)C2)c([N+](=O)[O-])c1` (stereo not drawn), for which the outcome was inactive.

For the compound `O=[As](O)(c1ccccc1)c1ccc(O)cc1`, the result was inactive.

For `C(Cc1nn[nH]n1)Cc1nn[nH]n1`, the result was inactive.

Take `Nc1ccc([As](=O)(O)c2ccc([N+](=O)[O-])cc2)cc1`: the outcome was inactive.

Consider `O=C(OC1CN2CCC1CC2)c1cccc(Cl)c1` (stereo not drawn), for which the outcome was inactive.

Take `COc1ccc(OP(C)(=O)Nc2cccc(Br)c2)cc1` (stereo not drawn): the result was inactive.

With `CN(C)C1(CNC(=O)c2ccc(Cl)c(S(N)(=O)=O)c2)CCCCC1`, the outcome was inactive.

`O=P(Nc1ccccn1)(c1ccc(Br)cc1)c1ccc(Br)cc1`: the result was inactive.

`C[C@H]1OP(=O)(Oc2ccccc2)[C@H](O)[C@H](O)[C@H]1N=[N+]=[N-]` (stereo partly drawn): the result was inactive.

Regarding `O=P(Nc1nc2ccccc2s1)(c1ccccc1)c1ccccc1`, the result was inactive.

On to `CN(C)CCOC(=O)C(O)(c1ccccc1)C1CCCCC1` (stereo not drawn), for which the outcome was inactive.

Consider `COc1ccc(NP(C)(=O)Oc2ccccc2OC)cc1` (stereo not drawn), for which the result was inactive.

Take `CN1CCCCC1COC(=O)C1(O)c2ccccc2CCc2ccccc21` (stereo not drawn): the result was inactive.

As for `COc1ccccc1OP(C)(=O)Nc1c(C)cccc1C` (stereo not drawn), the outcome was inactive.

Turning to `O=P1(Nc2ncccn2)COc2ccccc2OC1`, the outcome was inactive.

On to `Cc1ccc(OCC(=O)OC2CN3CCC2CC3)cc1` (stereo not drawn), for which the outcome was inactive.

For the compound `O=[As](O)(c1cccs1)c1cccs1`, the result was inactive.

For `O=P1(Nc2ccc(Br)cn2)COc2ccccc2OC1`, the outcome was inactive.

Consider `CCCOc1ccc(NP(C)(=O)Oc2ccc(Cl)cc2)cc1` (stereo not drawn), for which the result was inactive.

Consider `CP(=O)(Nc1ccc(SC(F)(F)F)cc1)Oc1ccccc1` (stereo not drawn), for which the outcome was inactive.

For `Nc1cccc([As](=O)(O)c2ccccc2)c1`, the result was inactive.

For `COc1cc(C2NCCC3(OCCO3)C2(C)C)cc(OC)c1OC.O=[N+]([O-])c1cc([N+](=O)[O-])c(O)c([N+](=O)[O-])c1` (stereo not drawn), the outcome was inactive.

`Cc1ccc(C(=O)OC2CN3CCC2CC3)cc1` (stereo not drawn): the outcome was inactive.

As to `CC1CCC(C(C)C)C(OP(=O)(Nc2ccccn2)c2ccccc2)C1` (stereo not drawn), the result was inactive.

In the case of `Cc1nn(-c2ccccc2)c2c1P(=O)(N1CCOCC1)N(C)C(c1ccccc1)=N2` (stereo not drawn), the outcome was inactive.

Regarding `O=C(/C=C/c1ccccc1)OC1CN2CCC1CC2` (stereo not drawn), the outcome was inactive.

With `CCOC(=O)C(CC)C1=NC(C)(C)Cc2ccccc21.O=[N+]([O-])c1cc([N+](=O)[O-])c(O)c([N+](=O)[O-])c1` (stereo not drawn), the result was inactive.

As to `CN(C)C1(CNC(=O)c2ccc(S(C)(=O)=O)cc2)CCCCC1`, the outcome was inactive.

On to `O=[N+]([O-])c1cc([N+](=O)[O-])c(Nc2nnnn2CCO)c([N+](=O)[O-])c1`, for which the outcome was inactive.

In the case of `COc1ccccc1CNC(=O)COC(=O)C(O)(c1ccccc1)c1ccccc1`, the result was inactive.

With `O=[N+]([O-])c1cc([N+](=O)[O-])c(-c2cnn(-c3ccccc3)c2)c([N+](=O)[O-])c1`, the outcome was inactive.

Regarding `CC1(CBr)Cn2c(nc3ccccc3c2=O)S1` (stereo not drawn), the outcome was inactive.

Take `O=[As](O)(c1ccccc1Br)c1ccccc1Br`: the result was inactive.

Turning to `CN(C(=O)Cc1ccc(Cl)c(Cl)c1)[C@@H]1CCCC[C@H]1N1CCCC1`, the result was inactive.

On to `CC(C)/C=N\N=C(\N)N[N+](=O)[O-]`, for which the outcome was inactive.

Regarding `CCOP(=O)(Nc1ccc(C)cn1)OCC`, the outcome was inactive.

On to `CN(CCCl)Cc1cc(Cl)c(NC2=NCCN2)c(Cl)c1`, for which the result was inactive.

As for `O=[N+]([O-])c1cc([N+](=O)[O-])c(-n2nnc3ccccc32)c([N+](=O)[O-])c1`, the outcome was inactive.

On to `CCOP(=O)(NC(=NC(C)c1ccccc1)NC(C)c1ccccc1)OCC` (stereo not drawn), for which the result was inactive.

Consider `CCC1=CC2Cc3nc4ccc(Cl)cc4c(N)c3C(C1)C2` (stereo not drawn), for which the outcome was inactive.

With `O=P1(Nc2ccccn2)COc2ccccc2OC1`, the result was inactive.

As for `CC(C)(C)C(=O)NC(Sc1ncccn1)C(Cl)(Cl)Cl` (stereo not drawn), the outcome was inactive.

For the compound `Clc1n[nH]nc1-c1nn[nH][15n]1`, the outcome was inactive.

Consider `Cc1ccc(C)c(NP(C)(=O)Oc2ccccc2)c1` (stereo not drawn), for which the result was inactive.

On to `CCCOP(=S)(Nc1nc(N)cc(=O)[nH]1)OCCC`, for which the outcome was inactive.

Consider `Cc1ccc(NCCc2c([N+](=O)[O-])cc([N+](=O)[O-])cc2[N+](=O)[O-])cc1`, for which the outcome was inactive.

With `Nc1cccc2c([As](=O)(O)O)cccc12`, the outcome was inactive.

As for `Cc1cc(C)cc(OP(C)(=O)Nc2ccccn2)c1` (stereo not drawn), the result was inactive.

As for `CP(=O)(Nc1cccc(Br)c1)Oc1ccccc1` (stereo not drawn), the outcome was inactive.

On to `CCOP(=O)(Nc1cccc2ccccc12)OCC`, for which the outcome was inactive.

In the case of `COc1ccccc1OP(C)(=O)Nc1cccc(Br)c1` (stereo not drawn), the result was inactive.

Consider `CS(=O)(=O)c1ccc(Cl)c(NC(=O)COC(=O)C(O)(c2ccccc2)c2ccccc2)c1`, for which the result was inactive.

In the case of `O=[As](O)(O)c1cccnc1`, the outcome was inactive.

In the case of `COc1cc(C(=O)NCC2(N3CCOCC3)CCCCC2)cc(Cl)c1OC(C)C`, the result was inactive.

With `O=C(OC1CN2CCC1CC2)c1ccc(Cl)cc1` (stereo not drawn), the result was inactive.

In the case of `CCOC(=O)c1ccc(NP(C)(=O)Oc2cc(C)cc(C)c2)cc1` (stereo not drawn), the outcome was inactive.

Consider `Cc1cc(C)cc(OP(C)(=O)Nc2ccc(C)cc2C)c1` (stereo not drawn), for which the outcome was inactive.

Consider `Cc1cccc(OCC(=O)OC2CN3CCC2CC3)c1` (stereo not drawn), for which the result was inactive.

Consider `O=[As](O)(c1cccc(O)c1)c1cccc(O)c1`, for which the outcome was inactive.

Consider `NC(=O)Nc1ccc([As](=O)(O)O)cc1`, for which the outcome was inactive.

`CC1=NCCc2c1[nH]c1ccccc21.O=[N+]([O-])c1cc([N+](=O)[O-])c(O)c([N+](=O)[O-])c1`: the outcome was inactive.

In the case of `CN(C(=O)Cc1ccc(Cl)c(Cl)c1)[C@H]1CC[C@@]2(CCCO2)C[C@@H]1N1CCCC1`, the outcome was inactive.

As for `O=[N+]([O-])c1ccc2c(c1)nnn2O`, the result was inactive.

For the compound `CN(C)C(=O)c1cc([N+](=O)[O-])cc2c1-c1c(cc([N+](=O)[O-])cc1[N+](=O)[O-])C2=O`, the result was inactive.

Consider `CCOP1(=S)c2c(C)nn(CCC#N)c2N=C(c2ccc(F)cc2)N1C` (stereo not drawn), for which the outcome was inactive.

As to `CN(C(=O)Cc1ccccc1)[C@@H]1CC[C@]2(CCCO2)C[C@H]1N1CCCC1`, the result was inactive.

Regarding `N#CCCN(C(=O)COC(=O)C(O)(c1ccccc1)c1ccccc1)c1ccc(F)cc1`, the outcome was inactive.

Regarding `CS(=O)(=O)c1cc([N+](=O)[O-])c2no[n+]([O-])c2c1`, the result was inactive.

`O=P(Nc1nccs1)(Oc1ccccc1)Oc1ccccc1`: the result was inactive.

Regarding `O=P(Nc1nccs1)(c1ccccc1)c1nc2ccccc2s1` (stereo not drawn), the result was inactive.

Consider `O=C(O)c1cccc(Nc2c([N+](=O)[O-])cc([N+](=O)[O-])cc2[N+](=O)[O-])c1`, for which the outcome was inactive.

On to `CCOP1(=S)c2c(C)nn(CCC#N)c2N=C(c2ccccc2F)N1C` (stereo not drawn), for which the outcome was inactive.

For `O=C(O)COc1ccc([As](=O)(O)O)cc1[N+](=O)[O-]`, the outcome was inactive.

As to `Nc1ccccc1[As](=O)(O)c1ccccc1`, the result was inactive.

Take `Cc1ccc(NP(C)(=O)Oc2ccccc2)c(C)c1` (stereo not drawn): the outcome was inactive.

Take `CC(C)c1ccc(OP(=O)(Nc2ccccn2)Oc2ccccc2F)cc1` (stereo not drawn): the result was inactive.

Take `COc1ccccc1OP(C)(=O)Nc1ccc(C)cc1` (stereo not drawn): the outcome was inactive.

Consider `ClCCSc1nnc(-c2cccnc2)o1`, for which the outcome was inactive.

On to `CCOC(=O)c1ccc(NP(C)(=O)Oc2ccccc2)cc1` (stereo not drawn), for which the outcome was inactive.

In the case of `Cc1cc(C)cc(OP(C)(N)=O)c1` (stereo not drawn), the outcome was inactive.
